# Reference: US10640802B2 (priority 2012, dated 2020)
# Legend:
# [1] = test system: wild type AfArsR; experiment: Fluorescence anisotropy: dissociation of wild type AfArsR from DNA by arsenicals; format: binding, Acidithiobacillus ferrooxidans; details: read-out: half-maximal concentration for decrease of anisotropy; wild type AfArsR-DNA complex, FIG. 11A/B
# [2] = test system: AfArsR C102S mutant; experiment: Fluorescence anisotropy: dissociation of C102S AfArsR from DNA by arsenicals; format: binding, Acidithiobacillus ferrooxidans; details: slightly higher than the wild type
# [3] = test system: AfarsR-gfp biosensor (E. coli strain AW3110 bearing pBADarsR and pACYC184-parsO-gfp); experiment: In vivo biosensor assay, gfp expression, wild type AfarsR; format: cell-based; details: for biosensor response (gfp derepression): 0.05% arabinose, wild type repressor
# [4] = test system: C102S mutant biosensor (E. coli strain AW3110); experiment: In vivo biosensor assay, gfp expression, C102S AfarsR; format: cell-based
# [5] = test system: C102S biosensor co-cultured with Burkholderia sp. MR1; experiment: Biosensor co-cultured with Burkholderia sp. MR1 (in situ reduction); format: cell-based, E. coli / Burkholderia sp. MR1; details: 2 μM, M9 medium, 8 hours, 0.05% arabinose
# [6] = test system: arsenic hypersensitive E. coli strain AW3110; details: LB plate, overnight, FIG. 16C
substance,measurement,setting,value
phenylarsenite,EC50,[1],300 nM
same,response of C102S AfArsR (concentration range),[2],sub-micromolar range
same,biosensor response (gfp derepression),[3],much greater
same,biosensor response (gfp derepression),[3]; listed as PhAs(III),proportional to the concentration of the inducer
same,biosensor response,[3]; 0.5% arabinose,lost due to the toxicity
same,EC50,"[3]; read-out: apparent half maximal concentration required for induction, 0.2% arabinose, FIG. 6B",250 nM
same,induction of gfp expression,"[3]; subtoxic concentrations, 0.2% arabinose",induced gfp expression
same,biosensor response (gfp derepression),"[4]; 0.05% arabinose, C102S mutant repressor",proportional to the concentration of the inducer
same,fluorescence of Cys102-lacking biosensor,[4]; FIG. 10,high levels of fluorescence
same,EC50,"[4]; read-out: apparent half maximal concentration for induction, mutant biosensor, FIG. 13C",250 nM
same,response of biosensor co-cultured with Burkholderia,[5],did respond
same,"toxicity, disk test",[6],toxic
